Measurements: US3963716A, “Novel 1-phthalazone derivative, a process for its preparation and a pharmaceutical composition containing it” (priority 1973, dated 1976)

Columns and labels:
[1] = target: cyclic AMP phosphodiesterase; test: inhibition of cyclic AMP phosphodiesterase, aortic wall intima (rabbit); type: biochemical; conditions: 50% inhibition of cyclic AMP phosphodiesterase; read-out: I50, Aortic Wall, Intima (rabbit)
Protocol: (§1) The procedure of the experiment was carried out in accordance with the method described in H. Hidaka and M. Shibuya: title "A new assay of cyclic nucleotide phosphodiesterase and its application to humans", Biochemical Medicine, (in press).

[2] = target: cyclic AMP phosphodiesterase; test: inhibition of cyclic AMP phosphodiesterase, aortic wall media (rabbit); type: biochemical; conditions: 50% inhibition of cyclic AMP phosphodiesterase; read-out: I50, Aortic Wall, Media (rabbit)
Protocol: as §1

in vivo = conditions: mouse, oral, mice

Compound | IC50 [1] [µM] | IC50 [2] [µM] | LD50 (in vivo) [mg/kg]
Cn1c(=O)c2[nH]cnc2n(C)c1=O [theophylline] | 127 | 155 | 
CCOC(=O)c1c(C)cc2c(CO)n[nH]c(=O)c2c1C [6,8-dimethyl-7-ethoxycarbonyl-4-hydroxymethyl-1-phthalazone] |  |  | 4250
